Earlier results, collected in patent publication US8716182B2, “Liquid aqueous crop protection formulations” (BASF SE, priority 2008, dated 2014).

Conditions: miscible means fully miscible with water

Substance: hexylene glycol
- solubility in water at 20° C.: (500 g/l)
